Experimental data published in PMC5290327, “SC83288 is a clinical development candidate for the treatment of severe malaria” (Nature Communications, 2017).

Test system: Dd2 trophozoites
Assay: In vitro speed of action, clearance of trophozoites (Vial protocol)
Type: cell-based, Plasmodium falciparum
Conditions: compared with SC compounds
Experimental: To assess how quickly the two compounds were able to kill the parasite, we exposed highly synchronized trophozoites (24–30 h post invasion; 0.5% parasitemia) of Dd2 to different drug concentrations ranging from 0.1 to 10 μM (ref. [7]). Aliquots were withdrawn at different time points (from 0 to 6 h) after the addition of the drug and analysed for cell viability by [^3H] hypoxanthine incorporation. Parasite clearance depended on both drug concentration and exposure time (Fig. 4a). For instance, SC83288 cleared a 0.5% parasitemia at a concentration of 500 nM within an exposure time of 3±1 h (n=4).
The second approach followed the protocol described by Vial et al.[7]. Briefly, highly synchronized trophozoite-stage parasites (24–26 h post invasion; 0.5% parasitemia, 2% haemtocrit) were treated with 100, 500, 1, 5 and 10 μM of artemisinin, SC81458 and SC83288 for up to 6 h (0 h, 10 min, 30 min, 1 h, 2 h, 3 h, 4 h, 5 h and 6 h), before the drugs were washed out and cells returned to culture. At time point 10 h post invasion of the following cycle, [^3H]-hypoxanthine was added for 24 h to monitor parasite viability. The clearance time was determined for each treatment condition and was expressed as a function of the drug concentration.

C[C@@H]1CC[C@H]2[C@@H](C)C(=O)O[C@@H]3O[C@@]4(C)CC[C@@H]1[C@]32OO4 [Artemisinin]
killing efficacy for trophozoites: slower killing efficacy
